Results as given in PMC8957950, “Dose Optimization of Teicoplanin for Critically Ill Patients With Renal Dysfunction and Continuous Renal Replacement Therapy: Experience From a Prospective Interventional Study” (Frontiers in Pharmacology, 2022).
Like-named read-outs stand apart in the source and are kept apart here. Marks after values point to notes of the source that are not given here.

Columns and labels:
[1] = in vivo; cited from earlier work
[2] = Source text: Patients’ data were obtained from the inpatients’ medical database.
Remark: listed apart in the source
[3] = not given; remark: listed apart in the source
[4] = CRRT patients (CVVH), n = 26, ultrafiltrate, mean (SD), HPLC, SD
[5] = before the 6th–8th dose, CRRT group

Substance: Teicoplanin
- CL of TEI in the CVVHDF mode [1]: 5.8 ± 4.2 mL/h/kg
- Elimination by hemodialysis [1]: cannot be eliminated by hemodialysis
- Patients with renal dysfunction achieving the target Cmin of 15 μg/ml [1]: 20.3%
- Serum elimination half-life [1]: about 50 h
- Rate of adverse events ([2]; CRRT group): 5.0%
- Cases of liver injury ([2]; CRRT group (n = 40)): Two
- Rate of adverse events ([2]; non-CRRT group): 7.6%
- Cases of liver injury after TEI treatment ([2]; non-CRRT group (n = 66)): one
- Filtration coefficient of TEI (CRRT (CVVH), stable even at a higher ultrafiltration rate, summary statement): about 10%
- Trough serum concentration at the 6th–8th dose (CRRT patients (CVVH), n = 26, 24 h after start of infusion, mean (SD), HPLC, SD): 23.8 ± 7.1 mg/L
- Filtration coefficient at Cmin (CRRT patients (CVVH), n = 26, Sc = Cuf/Cs, mean (SD), SD): 10.7 ± 2.4%
- Filtration coefficient at peak concentration (CRRT patients (CVVH), n = 26, Sc = Cuf/Cs, ultrafiltration rate 44.7 ± 10.1 ml/kg/h, mean (SD), SD): 11.1 ± 2.5 ^a %
- Peak filtrate concentration at the 6th–8th dose [4]: 3.9 ± 1.1 mg/L
- Trough filtrate concentration at the 6th–8th dose [4]: 2.5 ± 0.8 mg/L
- AUC (CRRT patients, CVVH mode, n = 26, AUC24h = daily dose/CL, mean (SD), SD): 1541.8 ± 507.4 µg·h/mL
- Rate of TEI Cmin in the range of 10–30 mg/L ([3]; before the 3rd dose, CRRT group): 70.0%
- Rate of TEI Cmin in the range of 10–30 mg/L ([3]; before the 3rd dose, IRF (non-CRRT) group): 75.8%
- Rate of Cmin in the range of 15–30 mg/L [3, 5]: 70%
- Rate of TEI Cmin in the range of 10–30 mg/L [3, 5]: 90.0%
- Rate of TEI Cmin in the range of 10–30 mg/L ([3]; before the 6th–8th dose, IRF (non-CRRT) group): 89.1%
- Rate of Cmin in the range of 15–30 mg/L ([3]; before the 6th–8th dose, non-CRRT group): 71.7%
